Measured values reported in patent US7879808B2, “Lincomycin derivatives and antimicrobial agents comprising the same as active ingredient” (Meiji Seika Kaisha, Ltd., priority 2007, dated 2011).
Converted amounts (≈) assume the structure as drawn.

Key:
Type in all cases: cell-based
[1] = test system: S. pneumoniae MSC10197; test: MIC against S. pneumoniae MSC10197 (CLSI M7-A7 agar method); settings: Streptococcus pneumoniae, MSC10197, read-out: minimal inhibitory concentration (MIC)
Procedure: (§1) For representative compounds among lincomycin derivatives according to the present invention, the minimal inhibitory concentration (MIC, […]) against various pneumococci was measured according to the method described in Clinical and Laboratory Standards Institute, M7-A7, 2006. Sensitivity disk agar-N+5% horse aseptic defibranated blood was used as the medium for the measurement. The amount of bacteria inoculated was about 10^4 CFU/ml.

[2] = test system: S. pneumoniae MSC07571; test: MIC against S. pneumoniae MSC07571 (CLSI M7-A7 agar method); settings: Streptococcus pneumoniae, MSC07571, read-out: minimal inhibitory concentration (MIC)
Procedure: as §1

[3] = test system: S. pneumoniae MSC17994; test: MIC against S. pneumoniae MSC17994 (CLSI M7-A7 agar method); settings: Streptococcus pneumoniae, MSC17994, read-out: minimal inhibitory concentration (MIC)
Procedure: as §1

[4] = test system: S. pneumoniae MSC07465; test: MIC against S. pneumoniae MSC07465 (CLSI M7-A7 agar method); settings: Streptococcus pneumoniae, MSC07465, read-out: minimal inhibitory concentration (MIC)
Procedure: as §1

## CCC[C@@H]1C[C@@H](C(=O)N[C@@H]([C@H]2O[C@H](SC)[C@H](O)[C@@H](O)[C@H]2O)[C@H](C)Cl)N(C)C1 [CLDM, clindamycin, reference compound]
[1]
  MIC: 30 µg/mL (≈ 70.6 µM)
[2]
  MIC: 60 µg/mL (≈ 141 µM)
[3]
  MIC: 60 µg/mL (≈ 141 µM)
[4]
  MIC: 30 µg/mL (≈ 70.6 µM)
